ChEMBL document CHEMBL3822371, “Rapid Discovery and Structure-Activity Relationships of Pyrazolopyrimidines That Potently Suppress Breast Cancer Cell Growth via SRC Kinase Inhibition with Exceptional Selectivity over ABL Kinase” (J Med Chem, 2016)

By UniProt entry, the sequences of proteins in these tests, tags left out. Where a name states a change or a piece, a line headed by the entry shows the natural chain unless it says otherwise.
UniProt P12931: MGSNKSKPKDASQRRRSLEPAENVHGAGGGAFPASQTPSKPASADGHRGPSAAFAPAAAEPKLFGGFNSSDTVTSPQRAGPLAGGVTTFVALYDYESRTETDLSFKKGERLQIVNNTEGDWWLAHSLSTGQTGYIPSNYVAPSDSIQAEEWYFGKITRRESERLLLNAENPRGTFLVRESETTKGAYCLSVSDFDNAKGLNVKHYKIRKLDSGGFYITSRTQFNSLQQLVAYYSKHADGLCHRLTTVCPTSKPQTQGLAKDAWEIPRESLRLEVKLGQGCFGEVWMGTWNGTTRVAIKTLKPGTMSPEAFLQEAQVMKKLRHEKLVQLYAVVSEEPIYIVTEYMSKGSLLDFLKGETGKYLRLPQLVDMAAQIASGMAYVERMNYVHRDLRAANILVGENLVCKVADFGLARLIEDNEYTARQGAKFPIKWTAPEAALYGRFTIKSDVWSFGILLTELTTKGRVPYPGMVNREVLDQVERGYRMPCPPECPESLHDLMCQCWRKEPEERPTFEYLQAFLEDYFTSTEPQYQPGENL

Legend:
[1] = in vivo; settings: CD1, mouse, po, 10 mg/kg
[2] = biological target: T1, Proto-oncogene tyrosine-protein kinase Src (Homo sapiens, UniProt P12931); test: biochemical
[3] = biological target: T1, Proto-oncogene tyrosine-protein kinase Src; test: biochemical; remark: listed apart in the source

Row | Compound | bioavailability [1] [%] | Ki [2] [nM] | IC50 [3] [nM]
1 | COc1cc(-c2nn(CCN3CCC(N(C)C)CC3)c3ncnc(N)c23)ccc1NC(=O)OC(C)(C)C | 25.3 | 0.8 | 
2 | COc1cc(-c2nn(CCN3CCC(N4CCCC4)CC3)c3ncnc(N)c23)ccc1NC(=O)OC(C)(C)C |  |  | < 0.5
